Earlier results in patent US20050112093A1, “Combination therapy for HCV infection” (priority 2003, published 2005).

Tests used:
HCV = settings: phase III study, 1,149 treatment naïve patients, 48-week treatment course; PEG-IFN-α2a 180 μg
[1] = in vivo

For “PEG-IFN-α2a: peginterferon alfa-2a, incorporates 40 kDa PEG molecules; Roche Laboratories”, the SVR (HCV) is listed as 30% and the serum half-life [1] is listed as “approximately 80 hours”.

In the case of “PEG-IFN-α2b: peginterferon alfa-2b, incorporates 12 kDa PEG molecules; Schering Plough Corporation”, the serum half-life [1] is listed as “approximately 31 hours”.
